Test results: patent US20200131144A1, “AMINE OR (THIO)AMIDE CONTAINING LXR MODULATORS” (Phenex-FXR GmbH, priority 2017, published 2020)

By UniProt entry, the sequences of proteins in these tests, tags left out. Chains listed by the source or under a name are the forms on record and can include a tag or linker. Residues count along the entry.
UniProt P55055, 156-460 with tags or gaps INS174Q limits assumed: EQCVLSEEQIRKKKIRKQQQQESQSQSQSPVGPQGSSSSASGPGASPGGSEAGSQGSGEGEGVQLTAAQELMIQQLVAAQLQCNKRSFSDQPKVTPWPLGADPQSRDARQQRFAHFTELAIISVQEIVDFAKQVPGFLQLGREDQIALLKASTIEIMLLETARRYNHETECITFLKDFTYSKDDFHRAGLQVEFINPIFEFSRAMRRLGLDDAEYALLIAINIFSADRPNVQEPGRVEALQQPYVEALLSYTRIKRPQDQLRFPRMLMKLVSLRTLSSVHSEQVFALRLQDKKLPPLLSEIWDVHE
UniProt P55055, with tags, fused parts or gaps INS174Q: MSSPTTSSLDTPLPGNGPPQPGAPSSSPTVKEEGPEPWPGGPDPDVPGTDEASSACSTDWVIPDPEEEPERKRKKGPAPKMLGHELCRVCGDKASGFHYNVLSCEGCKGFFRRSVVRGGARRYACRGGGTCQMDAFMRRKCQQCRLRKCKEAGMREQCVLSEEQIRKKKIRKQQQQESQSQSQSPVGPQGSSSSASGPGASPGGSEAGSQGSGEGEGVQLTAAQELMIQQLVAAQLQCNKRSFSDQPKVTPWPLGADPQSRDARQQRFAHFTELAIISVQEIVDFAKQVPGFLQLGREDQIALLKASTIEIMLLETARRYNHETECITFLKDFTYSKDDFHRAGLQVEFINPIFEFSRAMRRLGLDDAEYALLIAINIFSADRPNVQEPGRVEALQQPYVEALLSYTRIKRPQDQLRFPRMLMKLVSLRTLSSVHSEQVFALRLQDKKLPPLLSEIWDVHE
UniProt Q13133, whole entry: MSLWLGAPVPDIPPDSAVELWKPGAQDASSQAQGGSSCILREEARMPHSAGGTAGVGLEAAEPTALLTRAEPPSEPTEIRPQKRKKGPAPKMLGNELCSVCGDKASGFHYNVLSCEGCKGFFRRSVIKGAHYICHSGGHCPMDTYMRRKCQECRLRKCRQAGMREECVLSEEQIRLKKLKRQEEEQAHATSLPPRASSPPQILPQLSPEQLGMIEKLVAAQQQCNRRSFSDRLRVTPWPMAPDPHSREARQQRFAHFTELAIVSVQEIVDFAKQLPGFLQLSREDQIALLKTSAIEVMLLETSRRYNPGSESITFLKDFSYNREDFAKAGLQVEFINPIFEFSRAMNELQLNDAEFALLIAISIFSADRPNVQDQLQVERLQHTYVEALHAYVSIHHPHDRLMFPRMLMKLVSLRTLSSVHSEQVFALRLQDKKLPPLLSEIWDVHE
UniProt Q13133, 155-447 limits assumed: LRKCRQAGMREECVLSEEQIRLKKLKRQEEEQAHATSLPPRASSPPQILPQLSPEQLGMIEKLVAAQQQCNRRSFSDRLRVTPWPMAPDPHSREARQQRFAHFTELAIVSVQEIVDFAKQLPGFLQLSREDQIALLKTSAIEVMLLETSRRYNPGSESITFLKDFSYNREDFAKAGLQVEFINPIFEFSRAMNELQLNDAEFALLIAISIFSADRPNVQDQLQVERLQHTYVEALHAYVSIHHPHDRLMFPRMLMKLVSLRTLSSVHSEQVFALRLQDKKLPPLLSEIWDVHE

Assays:
[1] = biological target: GST-LXRβ ligand-binding domain (Homo sapiens, UniProt P55055, INS174Q); experiment: TR-FRETβ activity assay (NCoA3 coactivator peptide recruitment); settings: read-out: FRETβ; 1 μM 24(S)-25-epoxycholesterol as prestimulating agonist; inverse agonist unless *
Procedure: (§1) The tested compounds were usually dissolved, tested and stored as 20 mM stock solutions in DMSO. Since sulfonyl acetic acid derivatives tend to decarboxylate under these conditions, these stock solutions were prepared, tested and stored as 20 mM DMSO stock solutions containing 100 mM trifluoroacetic acid (5 equivalents). Sulfonyl acetic acid derivatives are shelf stable as solid at rt for long time as reported by Griesbrecht et al. (Synlett 2010:374) or Faucher et al. (J. Med. Chem. 2004; 47:18).
Recombinant GST-LXRβ ligand-binding domain (LBD; amino acids 156-461; NP009052; SEQ ID NO:4) was expressed in E. coli and purified via gluthatione-sepharose affinity chromatography. N-terminally biotinylated NCoA3 coactivator peptide (SEQ ID NO:7) was chemically synthesized (Eurogentec). Assays were done in 384 well format (final assay volume of 25 μL/well) in a Tris/HCl buffer (pH 6.8) containing KCl, bovine serum albumin, Triton-X-100 and 1 μM 24(S)-25-epoxycholesterol as LXR-prestimulating agonist. Assay buffer was provided and test articles (potential LXR inverse agonists) were titrated to yield final assay concentrations of 50 μM, 16.7 μM, 5.6 μM, 1.9 μM, 0.6 μM, 0.2 μM, 0.07 μM, 0.02 μM, 0.007 μM, 0.002 μM with one vehicle control. Finally, a detection mix was added containing anti GST-Tb cryptate (CisBio; 610SAXLB) and Streptavidin-XL665 (CisBio; 610SAXLB) as fluorescent donor and acceptor, respectively, as well as the coactivator peptide and LXRβ-LBD protein (SEQ ID NO:4). The reaction was mixed thoroughly, equilibrated for 1 h at 4° C. and vicinity of LXRβ and coactivator peptide was detected by measurement of fluorescence in a VictorX4 multiplate reader (PerkinElmer Life Science) using 340 nm as excitation and 615 and 665 nm as emission wavelengths. Assays were performed in triplicates.
Final Assay Concentrations of Components:
240 mM KCl, 1 μg/μL BSA, 0.002% Triton-X-100, 125 pg/μL anti GST-Tb cryptate, 2.5 ng/μL Streptavidin-XL665, coactivator peptide (400 nM), LXRP protein ([…], i.e. 76 nM).

LXRα full length (FL) = LXRα full length (FL) (Homo sapiens, UniProt Q13133); experiment: LXR Gal4 reporter transient transfection assay, mammalian two-hybrid, FL-M2H Gal4α; settings: read-out: FL-M2H Gal4α; HEK293 cells; inverse agonist unless *
Procedure: as §1
(§2) LXR Gal4 Reporter Transient Transfection Assays
(§3) LXRα and LXRβ activity status was determined via detection of interaction with coactivator and corepressor proteins in mammalian two-hybrid experiments (M2H). […] As cofactors, domains of either the steroid receptor coactivator 1 (SRC1; amino acids 552-887; SEQ ID NO:5) or of the corepressor NCoR (amino acids 1906-2312; NP006302; SEQ ID NO:6) were expressed as fusions to the DNA binding domain of the yeast transcription factor GAL4 (from pCMV-BD; Stratagene). Interaction was monitored via activation of a coexpressed Firefly Luciferase Reporter gene under control of a promoter containing repetitive GAL4 response elements (vector pFRLuc; Stratagene). […] Measurements of luminescence were done in a BMG-luminometer.

LXRβ full length (FL) = LXRβ full length (FL) (Homo sapiens, UniProt P55055, INS174Q); experiment: LXR Gal4 reporter transient transfection assay, mammalian two-hybrid, FL-M2H Gal4β; settings: read-out: FL-M2H Gal4β; HEK293 cells; inverse agonist unless *
Procedure: as §1, §2, §3

[2] = biological target: LXRα ligand-binding domain (LBD) (Homo sapiens, UniProt Q13133); experiment: LXR Gal4 reporter transient transfection assay, mammalian two-hybrid, LBD-M2H Gal4α; settings: read-out: LBD-M2H Gal4α; HEK293 cells; inverse agonist unless *
Procedure: as §1, §2, §3

[3] = biological target: LXRβ ligand-binding domain (LBD) (Homo sapiens, UniProt P55055, INS174Q); experiment: LXR Gal4 reporter transient transfection assay, mammalian two-hybrid, LBD-M2H Gal4β; settings: read-out: LBD-M2H Gal4β; HEK293 cells; inverse agonist unless *
Procedure: as §1, §2, §3

Row | SMILES | EC50 [1] [nM] | EC50 (LXRα full length (FL)) [nM] | EC50 (LXRβ full length (FL)) [nM] | EC50 [2] [nM] | EC50 [3] [nM]
1 | Cc1nc2ccccc2c(C(=O)N(Cc2ccc(-c3cccc(C(C)C(=O)O)c3)cc2)Cc2ccc(C(F)(F)F)o2)c1C (stereo not drawn) | 100 to 1000 | < 100 | < 100 | – | –
2 | Cc1nc2ccccc2c(C(=O)N(Cc2ccc(C(=O)OC(C)(C)C)o2)Cc2ncc(-c3cccc(C(C)C(=O)O)c3)cc2Cl)c1C (stereo not drawn) | > 10000 | 1000 to 10000 | 100 to 1000 | – | –
3 | Cc1ccc2ccccc2c1CN(Cc1ccc(-c2cccc(C3CC3C(=O)O)c2)cc1)Cc1ccc(C(F)(F)F)o1 (stereo not drawn) | 100 to 1000 | – | – | < 100 | < 100
